The source of these data is IntAct's records for PubMed 17932490.

First the molecules themselves.
B1: RAC-alpha serine/threonine-protein kinase (Homo sapiens), P31749 (parent)
chain: MSDVAIVKEGWLHKRGEYIKTWRPRYFLLKNDGTFIGYKERPQDVDQREAPLNNFSVAQCQLMKTERPRPNTFIIRCLQWTTVIERTFHVETPEEREEWTTAIQTVADGLKKQEEEEMDFRSGSPSDNSGAEEMEVSLAKPKHRVTMNEFEYLKLLGKGTFGKVILVKEKATGRYYAMKILKKEVIVAKDEVAHTLTENRVLQNSRHPFLTALKYSFQTHDRLCFVMEYANGGELFFHLSRERVFSEDRARFYGAEIVSALDYLHSEKNVVYRDLKLENLMLDKDGHIKITDFGLCKEGIKDGATMKTFCGTPEYLAPEVLEDNDYGRAVDWWGLGVVMYEMMCGRLPFYNQDHEKLFELILMEEIRFPRTLGPEAKSLLSGLLKKDPKQRLGGGSEDAKEIMQHRFFAGIVWQHVYEKKLSPPFKPQVTSETDTRYFDEEFTAQMITITPPDQDDSMECVDSERRPHFPQFSYSASGTA
partner: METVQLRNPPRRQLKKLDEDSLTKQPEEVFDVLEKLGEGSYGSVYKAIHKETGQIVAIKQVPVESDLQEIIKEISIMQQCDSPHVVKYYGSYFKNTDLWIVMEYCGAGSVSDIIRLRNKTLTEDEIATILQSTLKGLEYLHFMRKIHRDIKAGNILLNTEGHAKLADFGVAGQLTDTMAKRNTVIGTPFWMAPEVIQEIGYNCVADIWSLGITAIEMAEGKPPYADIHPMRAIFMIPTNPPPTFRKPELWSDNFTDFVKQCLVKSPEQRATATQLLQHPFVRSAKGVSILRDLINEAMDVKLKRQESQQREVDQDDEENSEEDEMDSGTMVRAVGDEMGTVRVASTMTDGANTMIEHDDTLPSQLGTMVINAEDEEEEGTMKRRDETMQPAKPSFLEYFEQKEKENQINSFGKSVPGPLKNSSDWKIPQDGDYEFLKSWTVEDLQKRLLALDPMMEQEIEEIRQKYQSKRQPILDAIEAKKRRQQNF

The variants in this experiment derive from B1. The settings on record: with stk4_human STK4, Q13043.
As to P427A, the “effect of a mutation on the interaction” value is given as “disrupting interaction”.
With P424A the entry was “disrupting interaction”.
